ChEMBL document CHEMBL1140067, “Synthesis, in vitro, and in vivo biological evaluation and molecular docking simulations of chiral alcohol and ether derivatives of the 1,5-diarylpyrrole scaffold as novel anti-inflammatory and analgesic agents” (Bioorg Med Chem, 2008)

Biological target: T1, Prostaglandin G/H synthase 2 (Mus musculus, UniProt Q05769)
T1 sequence (Q05769 whole entry): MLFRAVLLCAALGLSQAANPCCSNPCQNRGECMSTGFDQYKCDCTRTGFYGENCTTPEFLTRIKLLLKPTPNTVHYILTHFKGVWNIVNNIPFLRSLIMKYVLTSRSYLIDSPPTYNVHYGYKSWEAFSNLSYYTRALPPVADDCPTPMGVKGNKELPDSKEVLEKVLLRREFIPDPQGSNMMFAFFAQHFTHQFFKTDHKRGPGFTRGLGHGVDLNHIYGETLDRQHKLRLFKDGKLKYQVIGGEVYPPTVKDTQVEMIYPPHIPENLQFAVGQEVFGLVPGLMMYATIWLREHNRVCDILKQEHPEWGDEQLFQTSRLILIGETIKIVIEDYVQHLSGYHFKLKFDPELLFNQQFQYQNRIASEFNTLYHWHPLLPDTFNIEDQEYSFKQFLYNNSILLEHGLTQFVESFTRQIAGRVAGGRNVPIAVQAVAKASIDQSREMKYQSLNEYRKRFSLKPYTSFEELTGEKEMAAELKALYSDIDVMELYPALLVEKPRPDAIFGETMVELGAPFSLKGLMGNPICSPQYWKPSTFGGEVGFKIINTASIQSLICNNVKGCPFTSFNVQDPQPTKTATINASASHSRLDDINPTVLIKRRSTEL

IC50 [nM]	Compound
300	CCOC(=O)C(O)c1cc(-c2ccc(S(C)(=O)=O)cc2)n(-c2ccccc2)c1C (racemic)
120	CCOC(=O)C(O)c1cc(-c2ccc(S(C)(=O)=O)cc2)n(-c2ccc(OC)cc2)c1C (racemic)
